{
  "sequences": {"note": "The chains behind the UniProt entries cited, without tags or fusion partners.", "UniProt Q99720, whole entry": "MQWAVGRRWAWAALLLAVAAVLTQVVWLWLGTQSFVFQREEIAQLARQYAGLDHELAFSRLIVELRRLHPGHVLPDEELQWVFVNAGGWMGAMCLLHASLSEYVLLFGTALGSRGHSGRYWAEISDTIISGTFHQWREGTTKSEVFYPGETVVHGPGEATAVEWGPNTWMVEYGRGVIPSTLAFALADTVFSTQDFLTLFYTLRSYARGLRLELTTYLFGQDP", "UniProt Q9R0C9, whole entry": "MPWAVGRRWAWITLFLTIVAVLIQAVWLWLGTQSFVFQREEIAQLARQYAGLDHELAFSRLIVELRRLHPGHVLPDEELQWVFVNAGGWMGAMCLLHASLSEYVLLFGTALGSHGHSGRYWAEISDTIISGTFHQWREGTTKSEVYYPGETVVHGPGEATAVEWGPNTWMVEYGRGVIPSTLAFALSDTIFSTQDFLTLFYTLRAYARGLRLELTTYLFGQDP"},
  "source": "patent US20240315989A1",
  "about": "(priority 2021, published 2024)",
  "origin": "cited, not measured here",
  "key": {"σ1 site": {"target": "σ1 site (Homo sapiens, UniProt Q99720)", "conditions": "read-out: Affinity for σ1 Site (Ki or KD values); cited from earlier work"}, "sigma-1 receptors": {"target": "sigma-1 receptors (Rattus norvegicus, UniProt Q9R0C9)", "conditions": "cited from earlier work"}, "SARS-CoV-2": {"system": "SARS-CoV-2", "conditions": "cited from earlier work"}},
  "note": "pKi: −log10 of the molar value.",
  "data": [
    {"molecule": "CN(C)CCCN1c2ccccc2Sc2ccc(Cl)cc21", "note": "[Chlorpromazine]", "values": [
      {"measurement": "pKi", "setting": "σ1 site", "value": "> 6.30"}
    ]},
    {"molecule": "CN(C)CCCC1(c2ccc(F)cc2)OCc2cc(C#N)ccc21", "note": "(stereo not shown) [citalopram]", "values": [
      {"measurement": "pKi", "setting": "sigma-1 receptors", "value": 6.39}
    ]},
    {"molecule": "CN(C)CCC[C@@]1(c2ccc(F)cc2)OCc2cc(C#N)ccc21", "note": "[escitalopram]", "values": [
      {"measurement": "pKi", "setting": "sigma-1 receptors", "value": 6.54}
    ]},
    {"molecule": "CNCCC(Oc1ccc(C(F)(F)F)cc1)c1ccccc1", "note": "(stereo not shown) [fluoxetine]", "values": [
      {"measurement": "Inhibiting SARS-CoV-2 replication at a concentration of", "setting": "SARS-CoV-2", "value": "at a concentration of 0.8 μg/ml"}
    ]}
  ]
}
